Laboratory results as given in patent US9872922B2, “Anti-EFNA4 antibody-drug conjugates” (PFIZER, INC., priority 2013, dated 2018).

Tested on: Ovarian-63 (OV63) ovarian cancer PDX
Assay: In vivo efficacy, OV63 ovarian cancer PDX
Parameters: species or system NOD/SCID mice (human tumor PDX)

B1: huE22-AcBut-CM: huE22 conjugated via lysine residues to AcBut-N-acetyl-γ-calicheamicin dimethyl hydrazide (AcBut-CM) (conjugate)
heavy: QVQLVQSGAEVKKPGASVKVSCKASGYTFTGYYIHWVRQAPGQGLEWMGWIYPGNFNTKYNERFKGRVTMTTDTSTSTAYMELRSLRSDDTAVYYCAREDGSPYYAMDYWGQGTSVTVSSASTKGPSVFPLAPSSKSTSGGTAALGCLVKDYFPEPVTVSWNSGALTSGVHTFPAVLQSSGLYSLSSVVTVPSSSLGTQTYICNVNHKPSNTKVDKKV[human IgG1 Fc omitted here]
light: DIVMTQTPLSLSVTPGQPASISCRSSQSLVHSNGNTFLYWYLQKPGQSPQLLIYRVSNRFSGVPDRFSGSGSGTDFTLKISRVEAEDVGVYYCFQATHVPWTFGGGTKVEIKRTVAAPSVFIFPPSDEQLKSGTASVVCLLNNFYPREAKVQWKVDNALQSGNSQESVTEQDSKDSTYSLSSTLTLSKADYEKHKVYACEVTHQGLSSPVTKSFNRGEC
% TGI (0.09 mg/kg, OV63 PDX): 59% TGI | tumor regression (0.27 mg/kg): Transient tumor regressions were achieved | Regression (TTP, Days) (0.27 mg/kg, OV63 PDX): Regression (88) Days | effect on tumor growth (0.036 and 0.09 mg/kg): delays in tumor growth achieved
